In patent US8206748B2, “Powdery composition for nasal administration” (Teijin Limited, priority 1996, dated 2012):

What was measured:
[1] = cited from earlier work
[2] = estimated

For insulin, the “maximum blood concentration of insulin” value ([1]; 10 units of insulin administered nasally to a rabbit) is given as “less than 200 μU/ml”, the “maximum blood concentration relative to that obtained in injection with same amount of insulin” value ([1]; 10 units of insulin, rabbit) is given as “about 20%” and the “absorption ratio of the nasal preparation determined from AUC, relative to injection” value [2] is given as “less than 10%”.
